Results on one molecule are retold here after US20230339968A1, “KRAS Gl2C INHIBITORS” (Eli Lilly and Company, priority 2019, published 2023).

The test system of this experiment is H1373 (lung) xenograft. As to the kind of experiment: Anti-tumor growth activity, H1373 xenograft model. The settings on record: 5 mg/kg QD × 28, oral. The class given is in vivo, mouse. As for the experimental part: For xenograft models of H1373, HCC44, MiaPaca-2, SW1463, KYSE-410 and UM-UC-3, typically 5-10×10^6 cells in a 1:1 matrigel mix (0.2 mL total volume) are implanted by subcutaneous injection in hind leg of nude mice. Generally, a total of 4 mice each group are used for efficacy study. Treatment is initiated with oral administration (gavage) of testing compound or vehicle (20% captisol, 25 mM phosphate, pH2.0) in 0.2 mL volume when tumor size reaches approximately 200-300 mg. Tumor growth and body weight are monitored over time to evaluate efficacy and signs of toxicity. For EL3187 PDX model, frozen vials containing tumor fragments are thawed at 37° C. in a water bath. The tumor fragments are transferred to 50 mL Falcon tube and the ice cold DMEM medium is slowly added into the tube to a total volume of 35 mL. Then the tumor fragments are centrifuged at 130×g for 2 minutes at 4° C. and supernatant is aspirated. This washing step is repeated twice and the tumor fragments are resuspended in 10 mL DMEM for implantation into athymic nude-Foxn1nu mice (Envigo RMS, Inc., Mount Comfort, Indiana). Once tumor volumes reach 800 to 1000 mm^3, animals are sacrificed and tumors are harvested using aseptic technique. Fresh tumors are cut into 10 to 15 mm^3 fragments and placed into cold Gibco hibernate medium. The tumor fragments are subcutaneously implanted into animals with a 10 g trochar needle. […]

On to `C=CC(=O)N1CCN2C(=O)c3cc(F)c(-c4ccc(F)c5sc(N)c(C#N)c45)c(Cl)c3OCC[C@H]2C1` [Example 35, 4-[(13aS)-10-Chloro-8-fluoro-6-oxo-2-prop-2-enoyl-1,3,4,12,13,13a-hexahydropyrazino[2,1-d][1,5]benzoxazocin-9-yl]-2-amino-7-fluoro-benzothiophene-3-carbonitrile], for which the “tumor growth inhibition (%) or regression (−%)” value is 97.9%.
